In the test the test system is J774.2 mouse macrophages. In words: LPS-induced cytokine and chemokine levels in J774.2 mouse macrophage cell supernatant (ELISA). Type of test: cell-based.

Consider `C[C@@H]1C[C@H]2[C@@H]3CCC4=CC(=O)C=C[C@]4(C)[C@@]3(F)[C@@H](O)C[C@]2(C)[C@@]1(O)C(=O)CO` [Dexamethasone], for which, for the setting “0.001 µM, J774.2 supernatant”, the TNF-α % reduction stood at 1.59%. The CXCL1 % reduction (J774.2 cells, compound 0.03 µM) is listed as -159%.

These data come from PMC8480901 (PLoS ONE, 2021).
